Measurements reported in patent US11759461B2, “Small molecule inhibitors of cancer stem cells and mesenchymal cancer types” (The Scripps Research Institute, priority 2017, dated 2023).

Test system: FOXC2-expressing HMLER cells
Assay: Cell Titer Glo viability of FOXC2-HMLER cells (high throughput screen and 10-point response)
Format: cell-based, human
Details: FOXC2-HMLER vs control HMLER
Method: For high throughput screening, FOXC2-HMLER and HMLER cells were plated at 10^3 cells per well in white 384-well plates in 50 μL of MEGM medium (Lonza). Cells were allowed to attach for one hour before compound was transferred to each well as a DMSO solution using a 100 nL pintool head affixed to a PerkinElmer FX instrument. After 72-hour incubation, 30 μL of a Cell Titer Glo solution (diluted 1:6 in water, Promega) was dispensed into each well and luminance values were recorded using an Envision plate reader. […] All other miniaturized, selective viability experiments were performed as above using the indicated growth medium.
More specifically, in the high throughput screening assay above, each cell line was plated at 1,000 cells per well in 384-well plates, treated for 72 hours with 2 μM of test compound, and the viability of each line was determined in parallel by Cell Titer Glo (Promega) luminance measurements.

CC1=C(CO)C(=O)O[C@@H]([C@@H](C)[C@H]2CC[C@H]3[C@@H]4C[C@H]5O[C@]56[C@@H](O)C=CC(=O)[C@]6(C)[C@H]4CC[C@]23C)C1 [WIF-A, Withaferin A, reference compound] was tested, and the “cytotoxic index, FOXC2-HMLER relative to control cells” value was ~10 fold.
